Measured values from US20070015702A1, “Method of treatment and/or prevention of neuropathic pain” (Asahi Kasei Pharma Corporation, priority 2005, published 2007).

Legend:
[1] = rat, in vivo, sc
Experimental: Using normal rats (each 4 rats) which were in the same week old in initiation of administration of elcatonin as in Examples 1 and 2, dose of elcatonin not varying serum calcium value was examed in the case of single subcutaneous administration (administered over 10 seconds). […] Measurement of serum calcium value was conducted using calcium C-test wako (Wako).

[2] = rat, in vivo
[3] = rat, in vivo; remark: listed apart in the source

dose at which serum calcium value changed [1]: ≥ 150 mU/kg
Substance: 1-butylic acid-7-(L-2-aminobutylic acid)-26-L-aspartic acid-27-L-valine-29-L-alaninecalcitonin [elcatonin]
change in body weight compared with vehicle administration group [2]: no change in body weight | body weight increase [3]: suppression of body weight increase became remarkable
